Chains of the proteins cited; added tags and fusions are not shown.
UniProt P41143, whole entry, looked up: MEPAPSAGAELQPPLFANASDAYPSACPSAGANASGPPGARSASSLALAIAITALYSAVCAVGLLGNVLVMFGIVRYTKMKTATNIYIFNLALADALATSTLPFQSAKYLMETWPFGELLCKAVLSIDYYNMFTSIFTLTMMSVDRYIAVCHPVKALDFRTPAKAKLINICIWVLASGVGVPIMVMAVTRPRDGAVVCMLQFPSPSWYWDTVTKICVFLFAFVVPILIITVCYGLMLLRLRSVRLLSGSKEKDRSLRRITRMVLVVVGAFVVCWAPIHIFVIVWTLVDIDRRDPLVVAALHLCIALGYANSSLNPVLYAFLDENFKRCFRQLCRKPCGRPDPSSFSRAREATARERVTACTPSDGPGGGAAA
UniProt P35372, whole entry, looked up: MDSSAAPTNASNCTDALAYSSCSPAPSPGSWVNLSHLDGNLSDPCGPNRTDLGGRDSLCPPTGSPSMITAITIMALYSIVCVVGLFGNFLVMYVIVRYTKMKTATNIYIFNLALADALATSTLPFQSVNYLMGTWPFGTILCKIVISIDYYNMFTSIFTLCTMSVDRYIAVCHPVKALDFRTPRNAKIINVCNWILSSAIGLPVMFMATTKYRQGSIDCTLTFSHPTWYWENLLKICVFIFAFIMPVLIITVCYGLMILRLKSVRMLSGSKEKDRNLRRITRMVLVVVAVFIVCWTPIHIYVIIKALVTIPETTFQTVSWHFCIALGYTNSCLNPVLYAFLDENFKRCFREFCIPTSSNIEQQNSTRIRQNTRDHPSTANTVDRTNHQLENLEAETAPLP

In ChEMBL document CHEMBL1130557, “Synthesis and biological evaluation of 14-alkoxymorphinans. 14.1 14-ethoxy-5-methyl substituted indolomorphinans with opioid receptor selectivity” (Bioorg Med Chem Lett, 1997):

Tests used:
[1] = molecular target: T1, Opioid receptors; mu & delta (Homo sapiens) (UniProt P41143+P35372); test: (§1) Selectivity for mu opioid receptor over delta opioid receptor; type: protein assay
[2] = molecular target: T1, Opioid receptors; mu & delta (Homo sapiens); test: as §1; type: protein assay; remark: listed apart in the source

CCO[C@@]12Cc3c([nH]c4ccccc34)[C@]3(C)Oc4c(O)ccc5c4[C@@]31CCN(CC1CC1)C2C5
Ratio [1]: 102 | Ratio [2]: 50
